Laboratory results as given in ChEMBL document CHEMBL1921714, “Discovery of aminobenzyloxyarylamides as κ opioid receptor selective antagonists: application to preclinical development of a κ opioid receptor antagonist receptor occupancy tracer” (J Med Chem, 2011).

Sequences of proteins named here, by UniProt entry; tags and fusion partners are left off.
UniProt P41143, whole entry: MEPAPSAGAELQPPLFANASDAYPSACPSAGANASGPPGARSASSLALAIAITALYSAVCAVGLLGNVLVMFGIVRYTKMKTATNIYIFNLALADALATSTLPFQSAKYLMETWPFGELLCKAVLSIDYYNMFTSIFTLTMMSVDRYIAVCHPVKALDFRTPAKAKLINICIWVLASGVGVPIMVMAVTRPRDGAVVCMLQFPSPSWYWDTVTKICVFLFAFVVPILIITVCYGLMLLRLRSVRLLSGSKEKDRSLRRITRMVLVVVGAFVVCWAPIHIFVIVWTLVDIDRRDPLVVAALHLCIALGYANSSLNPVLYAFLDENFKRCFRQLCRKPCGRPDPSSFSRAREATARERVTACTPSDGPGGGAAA
UniProt P35372, whole entry: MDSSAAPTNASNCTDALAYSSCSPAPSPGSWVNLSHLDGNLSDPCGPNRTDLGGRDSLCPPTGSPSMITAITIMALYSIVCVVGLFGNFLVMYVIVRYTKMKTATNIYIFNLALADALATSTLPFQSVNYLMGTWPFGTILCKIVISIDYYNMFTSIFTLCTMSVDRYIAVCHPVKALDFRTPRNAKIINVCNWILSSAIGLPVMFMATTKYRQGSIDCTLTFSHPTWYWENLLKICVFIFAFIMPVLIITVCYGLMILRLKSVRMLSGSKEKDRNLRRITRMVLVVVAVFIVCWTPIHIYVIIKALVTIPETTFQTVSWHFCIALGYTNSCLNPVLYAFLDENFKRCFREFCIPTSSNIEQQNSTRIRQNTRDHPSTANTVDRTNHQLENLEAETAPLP

Assays:
[1] = target: T1, Delta-type opioid receptor (Homo sapiens, UniProt P41143); assay: Displacement of [3H]diprenorphine from human opioid delta receptor expressed in HEK293 cells after 120 mins by scintillation counting; type: cell-based
How it was run: (§1)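 11-point curves, 0.01 nM–1 μM final. 120 min at 22 °C, then filtration and scintillation counting. Nonspecific binding set by 10 μM naltrexone. Four-parameter IC50; Ki by Cheng–Prusoff.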

[2] = target: T1, Delta-type opioid receptor; assay: Antagonist activity at human opioid delta receptor expressed in HEK293 cells assessed as inhibition of DPDPE-induced [35S]GTP-gamma-S binding after 4 hrs by scintillation counting; type: functional, cell-based
Mu-type opioid receptor [3] = target: T2, Mu-type opioid receptor (Homo sapiens, UniProt P35372); assay: Antagonist activity at human opioid mu receptor expressed in CHO cells assessed as inhibition of DAMGO-induced [35S]GTP-gamma-S binding after 4 hrs by scintillation counting; type: functional, cell-based
Mu-type opioid receptor [4] = target: T2, Mu-type opioid receptor; assay: Displacement of [3H]diprenorphine from human opioid mu receptor expressed in CHO cells after 120 mins by scintillation counting; type: cell-based; how it was run: as §1

`CC(C)[C@@H](CN1CC[C@@](C)(c2cccc(O)c2)[C@@H](C)C1)NC(=O)[C@H]1Cc2ccc(O)cc2CN1` [JDTIC] showed a Ki [1] of 188 nM, a Kb [2] of 168 nM and a Kb (Mu-type opioid receptor [3]) of 6.58 nM. For the same molecule, the Ki (Mu-type opioid receptor [4]) was 11.5 nM.
